This note sets out measurements from US11273168B2, “Methods of treating anxiety by administering a substituted quinolone” (OTSUKA PHARMACEUTICAL CO., LTD., priority 2010, dated 2022).

The chains behind the UniProt entries cited, without tags or fusion partners. Residues count along the entry.
UniProt P31652, whole entry: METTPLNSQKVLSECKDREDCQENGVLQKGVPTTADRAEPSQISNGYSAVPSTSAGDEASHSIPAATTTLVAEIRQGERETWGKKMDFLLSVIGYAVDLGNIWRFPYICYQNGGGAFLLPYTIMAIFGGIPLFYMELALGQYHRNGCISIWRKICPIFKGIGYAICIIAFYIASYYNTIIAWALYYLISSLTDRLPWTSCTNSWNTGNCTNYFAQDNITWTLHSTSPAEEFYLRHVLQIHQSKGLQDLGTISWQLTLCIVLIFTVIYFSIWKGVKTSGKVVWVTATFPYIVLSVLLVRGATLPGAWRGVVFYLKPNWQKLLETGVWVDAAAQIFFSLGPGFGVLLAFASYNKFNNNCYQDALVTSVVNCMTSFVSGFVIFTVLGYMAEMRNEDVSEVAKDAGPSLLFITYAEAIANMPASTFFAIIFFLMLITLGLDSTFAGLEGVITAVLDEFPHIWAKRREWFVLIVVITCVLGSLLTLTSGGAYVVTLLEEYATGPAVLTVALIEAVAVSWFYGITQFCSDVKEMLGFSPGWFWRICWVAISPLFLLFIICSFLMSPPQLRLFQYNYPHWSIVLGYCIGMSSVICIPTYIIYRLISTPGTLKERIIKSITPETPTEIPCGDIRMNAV
UniProt P23977, whole entry: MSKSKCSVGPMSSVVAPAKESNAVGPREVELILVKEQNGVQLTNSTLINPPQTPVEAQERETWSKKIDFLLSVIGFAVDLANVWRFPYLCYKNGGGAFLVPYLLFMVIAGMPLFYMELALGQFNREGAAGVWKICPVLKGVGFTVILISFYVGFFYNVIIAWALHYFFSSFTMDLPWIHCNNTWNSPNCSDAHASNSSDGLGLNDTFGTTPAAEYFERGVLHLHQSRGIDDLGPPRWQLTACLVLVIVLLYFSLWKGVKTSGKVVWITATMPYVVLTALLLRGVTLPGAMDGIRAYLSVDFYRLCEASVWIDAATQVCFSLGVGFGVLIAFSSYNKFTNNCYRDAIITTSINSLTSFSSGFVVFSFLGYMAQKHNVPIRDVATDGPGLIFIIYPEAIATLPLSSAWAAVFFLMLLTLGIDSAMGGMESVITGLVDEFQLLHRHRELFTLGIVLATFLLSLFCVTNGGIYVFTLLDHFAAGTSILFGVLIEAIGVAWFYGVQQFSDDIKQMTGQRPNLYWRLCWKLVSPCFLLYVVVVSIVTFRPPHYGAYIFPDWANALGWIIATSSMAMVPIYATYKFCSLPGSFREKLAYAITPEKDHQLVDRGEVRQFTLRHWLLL
UniProt Q9WTR4, 1-597: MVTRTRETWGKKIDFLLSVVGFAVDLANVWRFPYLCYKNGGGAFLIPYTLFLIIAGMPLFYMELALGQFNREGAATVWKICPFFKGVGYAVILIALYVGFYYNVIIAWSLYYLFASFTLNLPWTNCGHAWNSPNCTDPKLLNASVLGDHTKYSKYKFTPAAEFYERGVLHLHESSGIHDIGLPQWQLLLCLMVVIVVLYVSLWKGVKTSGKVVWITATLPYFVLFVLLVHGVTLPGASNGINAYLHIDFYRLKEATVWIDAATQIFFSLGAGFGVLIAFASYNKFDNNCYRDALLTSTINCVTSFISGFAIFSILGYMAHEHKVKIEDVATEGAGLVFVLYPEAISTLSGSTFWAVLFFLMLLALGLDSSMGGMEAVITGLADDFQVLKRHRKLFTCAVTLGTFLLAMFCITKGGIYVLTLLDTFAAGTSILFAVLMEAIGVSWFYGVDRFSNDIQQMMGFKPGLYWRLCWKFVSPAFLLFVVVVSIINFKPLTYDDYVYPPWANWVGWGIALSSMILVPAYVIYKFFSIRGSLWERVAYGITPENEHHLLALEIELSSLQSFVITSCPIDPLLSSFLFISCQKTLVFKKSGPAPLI

Holding throughout (assay type): biochemical
In one test the target is Serotonin (5-HT) uptake (Rattus norvegicus, UniProt P31652). In words: Serotonin (5-HT) uptake inhibitory activity using rat brain synaptosome (frontal cortex). The following applies: read-out: 50% Inhibitory concentration, tritium-labeled 5-HT 8 nM, 37° C. 10 minutes.
The target in the next test is Dopamine (DA) uptake (Rattus norvegicus, UniProt P23977). In words: Dopamine (DA) uptake inhibitory activity using rat brain synaptosome (corpus striatum). The settings on record: read-out: 50% Inhibitory concentration, tritium-labeled DA 2 nM, 37° C. ten minutes.
The target in test [1] is Norepinephrine (NE) uptake (Rattus norvegicus, UniProt Q9WTR4). In words: Norepinephrine (NE) uptake inhibitory activity using rat brain synaptosome (hippocampus). The settings on record: read-out: 50% inhibitory concentration, tritium-labeled NE 12 nM, 37° C. ten minutes.

Turning to `CC1(C)CN(c2ccc3cc(O)ccc3c2)[C@@H]2CCCC[C@@H]2N1`, the values for the IC50 (at Serotonin (5-HT) uptake; on Dopamine (DA) uptake; in test [1]) were 4.9 nM, 9.7 nM and 3.1 nM, respectively.
